Values of other authors, collected in publication PMC6438780 (Xenobiotica; the fate of foreign compounds in biological …, 2018).
Like-named read-outs stand apart in the source and are kept apart here.

Tested on: liver microsomes of humans
Details: ref data sheets provided by the manufacturer, cited from earlier work

O=C(O)Cc1ccccc1Nc1c(Cl)cccc1Cl [Dilofenac, diclofenac]
Dilofenac 4’-hydroxylation (human sample HH2): 3.3 nmol/mg/min
Dilofenac 4’-hydroxylation (human sample HH47): 2.8 nmol/mg/min
